Results taken from ChEMBL document CHEMBL1949581, “Anion inhibition studies of an α-carbonic anhydrase from the living fossil Astrosclera willeyana” (Bioorg Med Chem Lett, 2012).

Molecular target: T1, Astrosclerin-3 (Astrosclera willeyana, UniProt A6YCJ1)
T1 sequence (A6YCJ1 whole entry): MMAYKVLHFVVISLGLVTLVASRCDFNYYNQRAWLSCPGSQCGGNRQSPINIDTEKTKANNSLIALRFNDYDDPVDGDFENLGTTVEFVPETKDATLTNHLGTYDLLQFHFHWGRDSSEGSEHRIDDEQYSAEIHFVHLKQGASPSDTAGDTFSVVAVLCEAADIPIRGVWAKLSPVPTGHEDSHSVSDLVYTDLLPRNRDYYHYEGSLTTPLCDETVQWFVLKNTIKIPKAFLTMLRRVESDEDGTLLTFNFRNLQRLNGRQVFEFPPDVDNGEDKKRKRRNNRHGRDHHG
Test: biochemical
Format: cell-based

**Q.** With `N#C[S-].[Na+]` [THIOCYANATE SODIUM] as the compound, how does the Ki read?
**A.** 670 µM
